Binding of CDR-mutated scFvs to a peptide of the spike HR2 region

Reference: Li et al. 2023, doi:10.1038/s41467-023-39022-2. File: FLAb, binding data.

All variants were tested on one target, the spike HR2 peptide PDVDLGDISGINAS (SARS-CoV-2).

Parent scFv Ab-14: VH joined to VL by a (GGGGS)3 linker. Changes lie in the heavy chain CDRs alone.
VH: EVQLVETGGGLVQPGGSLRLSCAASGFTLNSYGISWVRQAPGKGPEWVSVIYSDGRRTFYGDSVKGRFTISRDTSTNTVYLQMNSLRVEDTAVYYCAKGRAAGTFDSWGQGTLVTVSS
VL: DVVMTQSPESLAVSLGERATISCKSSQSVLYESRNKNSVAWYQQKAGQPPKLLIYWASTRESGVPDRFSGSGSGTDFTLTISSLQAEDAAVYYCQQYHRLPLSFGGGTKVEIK

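Designed CDR sequences, proposed from the first random library and measured here. Several design methods are mixed in this list. The assay is AlphaSeq: two haploid yeast populations carry antibody and antigen on their surface. The frequency of each diploid, read from paired DNA barcodes, reflects how well the two displayed proteins bind. A regression on co-assayed BCL2-family reference pairs converts the normalised counts of each replicate to an apparent Kd. Mating was done six times.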

Each variant is given by its three heavy chain CDRs, as the data file delimits them; those of the parent are GFTLNSYGIS, VIYSDGRRTFYGDSVK, GRAAGTFDS.
The read-out is the apparent dissociation constant on a log10 scale (nM): the lower, the stronger.
A mean of the replicates is given; it leaves out those without a signal.
Where no diploid with the target was found in any replicate, the entry reads "not detected": below detection, most likely a poor binder, though not proof of it.

| CDR-H1 | CDR-H2 | CDR-H3 | log10 Kd (nM), mean | detected |
|---|---|---|---|---|
| GFDLDEYGIS | VIYADGQRTAYVDSVK | GENAGTFDV | -0.41 | 6 of 6 |
| GFDLMSYGIS | VIYADGRRTFYYDSVK | GREAGCFDS | 1.79 | 2 of 6 |
| GFDLNSYGIS | VIYSDGRRTMYGDSVK | GRAAGWFNS | not detected | 0 of 6 |
| GFDLNSYGIS | VIYSDGRRTMYIDSVK | GQAAGTFDS | 0.05 | 6 of 6 |
| GFSLNEYGIS | VIYADGKRRHYADSVK | GLISGFFDI | not detected | 0 of 6 |
| GFMLNSYGIS | VIYSDGRRTFYGDSVK | GYWCGVFDS | not detected | 0 of 6 |
| GFELNSYGIS | VIYSDGRRTFYGDNVK | GKNAGTFDS | 0.91 | 6 of 6 |
| GFTLNSYGIS | VIYSDGRRTFYDDSVK | GKEAGTFDS | 0.22 | 6 of 6 |
| GFTLDSYGIS | VIYSDGRRTFYKDSVK | GRAAGTFDS | 1.23 | 6 of 6 |
| GFSLNEYGIS | VIYSDGLRTFYGDSVK | GRTAGTFDS | -0.48 | 5 of 6 |
| GFTLNQYGIS | VIYSDGMRTFYSDSVK | GKAAGTFDS | 0.46 | 6 of 6 |
| GFTLNSYGIS | VIYADGRRTFYGDSVK | GRLAGTFCI | -0.37 | 6 of 6 |
| GFDLNEYGIS | VIYADGSRTAYADSVK | GENAGTFDI | not detected | 0 of 6 |
| GFDLNEYGIS | VIYADGMRTFYADSVK | GEAGGTFDS | 0.09 | 6 of 6 |
| GFDLDEYGIS | VIYADGKRTAYADSVK | GSNAGTFDL | -0.14 | 6 of 6 |
| GFDLDEYGIS | VIYADGMRTAYSDSVK | GQNAGTFDQ | -0.47 | 6 of 6 |
| GFTLNSYGIS | VIYADGRRTFYGDSVK | GRAAQTNKS | not detected | 0 of 6 |
| GFELNEYGIS | VIYSDGRRTFYGDSVK | GRSAGTFDS | 1.87 | 6 of 6 |
| GFDLNSYGIS | VIYSDGRRTFYGDSVK | GRIAGTFDT | -0.03 | 6 of 6 |
| GFNLNEYGIS | VIYADGMRTFYADSVK | GGAAGTFDV | -0.58 | 6 of 6 |
| GFTLNSYGIS | VIYSDGQRTFYIDSVK | GRIAGTFDS | not detected | 0 of 6 |
| GFTLNQYGIS | VIFSDGRRTFNSDSVK | GRAAGFFDS | not detected | 0 of 6 |
| GFDLNEYGIS | VIYADGMRTFYTDSVK | GEVAGTFDQ | -0.80 | 6 of 6 |
| GFTLNEYGIS | VIYSDGRRTFYTDSVK | GRFAGTCDS | not detected | 0 of 6 |
| GFTLNSYGIS | VIYADGRRTFWGDSVK | GRAFGTNKS | not detected | 0 of 6 |
| GFDLDEYGIS | VIYADGMRTFYADSVK | GNVAGTFDT | -0.24 | 6 of 6 |
| GFTLNSYGIS | VIYDDGRRTFYGDVVK | TRAAGTNKS | not detected | 0 of 6 |
| GFDLNEYGIS | VIYADGQRKSYADSFK | GRWSGQVIM | 3.97 | 2 of 6 |
| GFTLNDFGIS | VIYSDGRRTFYIDSVK | GRAAGTFDS | 0.85 | 4 of 6 |
| GFDLNEYGIS | VIYADGRRTAYTDSVK | GGNAGTFIS | not detected | 0 of 6 |
| GFDLNEYGIS | VIYADGMRTAYVDDVK | GNEAGTFDV | -0.24 | 6 of 6 |
| GFDLNEYGIS | VIYADGMRTAYQDSVK | GGNAGTFDV | -0.73 | 6 of 6 |
| GFTLNSYGIS | VIYSDGLRTFYGDSVK | GRAAGTDDS | not detected | 0 of 6 |
| GFQINSYGIS | VIYSDGRRTFYGDQVK | GRAAGTFDS | 2.59 | 2 of 6 |
| GFDLNEYGIS | VIYADGMRTVYTDSVK | GNNAGTFDV | 0.02 | 6 of 6 |
| GFDLNEYGIS | VIYADGRRTFYSDNVK | GQNAGTFDS | -0.33 | 6 of 6 |
| GFTLNSYGIS | VIYSDGRRTFYGDSVK | GREALTFSS | not detected | 0 of 24 |
| GFSLNSYGIS | VIYSDGRRTFYQDNVK | GNAAGTFDS | 0.18 | 6 of 6 |
| GFDLNEYGIS | VIYADGRRTFYKDSVK | GENAGTFDQ | -0.26 | 6 of 6 |
| GFDLNEYGIS | VIYADGMRTAYADNVK | GETAGTFDV | -0.31 | 6 of 6 |
| GFSLNSYGIS | VIYSDGRRTFYGDQVK | GWTAGTFDS | 0.63 | 6 of 6 |
| GFDLNEYGIS | VIYADGRRTFYIDSVK | GEQAGTFIM | 1.10 | 6 of 6 |
| GFELNSYGIS | VIYSDGRRTFYSDSVK | GQEAGTFDS | -0.26 | 6 of 6 |
| GFDLNEYGIS | VIYADGSRTFYADSVK | GETAGTFDQ | -0.65 | 6 of 6 |
| GFWLNEYGIS | VIYSDGRRTFYGDAVK | GRTAGTFDS | 1.76 | 6 of 6 |
| GFDLEKYGIS | VIYADGIRKVYDQSVK | GQMAGAFTV | not detected | 0 of 6 |
| GFTLNSYGIS | VIYADGRRTFYGDSVK | GHAAGTFDL | 0.22 | 6 of 6 |
| GFELNEYGIS | VIYSDGRRTFYQDSVK | GEAAGTFDS | 0.76 | 5 of 6 |
| GFDVMEYGIS | VIYADGMRQAYTNKVK | GNNGSSGLF | not detected | 0 of 6 |
| GFSLNEYGIS | VIYSDGRRTFYIDDVK | GGHAGTFDS | 0.01 | 6 of 6 |
| GFDLNEYGIS | VIYADGRRTFYADSVK | GQLAGTFSL | -0.57 | 6 of 6 |
| GFTLNEYGIS | VIYRDGRRTMYGDSVK | GRAAGNFDS | not detected | 0 of 6 |
| GFNLNSYGGS | VIYSDGLRTAYGDSVK | GRAAGTFDS | not detected | 0 of 6 |
| GFTLNDYHIS | VIYSDIRRTNYIDSVK | GRAAGTFDS | not detected | 0 of 6 |
| GFQLNSYGIS | VIYADGRRTFYGDSVK | GQAAGTFDK | 1.27 | 5 of 6 |
| GFQLNSYGIS | VIYSDGRRTFYADSVK | GRNAGTFDS | 1.47 | 4 of 6 |
| MFSLNEYGIS | VIYSDGRRTFYGDSVK | GRTAGTFDS | 0.53 | 6 of 6 |
| GFDLNEYGIS | VIYADGRRTYYIDSVK | GTNAGTFDS | -0.20 | 6 of 6 |
| GFDINEYGIS | VIYADGRRKAYADTVK | GIDVYGKTV | not detected | 0 of 6 |
| GFNLNEYGIS | VIYADGRRTFYSDDVK | GEFAGTFDL | 0.30 | 6 of 6 |
| GVNLDEYGIS | VIYADGQRTAYDDPVK | GEQGGTVMV | 1.37 | 1 of 6 |
| GFSLNSYGIS | VIYSDGRRTFYVDSVK | GQAAGTFDQ | 1.85 | 2 of 6 |
| GFDLNEYGIS | VIYADGRRTFYADSVK | GNTAGTFLF | 0.36 | 6 of 6 |
| GFDLNEYGIS | VIYADGRRTAYIDSVK | GEVAGTFDT | -0.35 | 6 of 6 |
| GFDLNEYGIS | VIYADGRRYHYQDSVK | GGVVGSVLY | not detected | 0 of 6 |
| GFELNSYGIS | VIYSDGRRTFYIDSVK | GRQAGTFDS | 1.41 | 5 of 6 |
| GFDLESYGIS | VIYSDGRRTFYGDSVK | GRAAGWFNS | 0.56 | 6 of 6 |
| GFDINEYGIS | VIYADGRRTYYADSVK | GNQGGTFDL | 0.37 | 5 of 6 |
| GFTLQSYGIS | VIYSDGRRTFYIDSVK | GRAAGTFDS | 1.81 | 1 of 6 |
| GFHLNSYGIS | VIYSDGRRTFYKDSVK | GKAAGTFDS | not detected | 0 of 6 |

A sequence that the file lists under several names has all its replicates pooled.
The authors' rule: three or more of the six replicates give a measured affinity, fewer mean a poor binder.
As a blank, each scFv also met three strains without target: over all heavy chain designs, 1% of these pairings were detected, typically at 2.08 and seldom below 0.84.
A sequence measured in both rounds can read differently, since the two assays cover different ranges.